## Apparent affinities of Ab-14 variants for a coronavirus HR2 peptide

Target: peptide PDVDLGDISGINAS, taken from heptad repeat 2 (HR2) of SARS-CoV-2 spike.

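The variants were designed computationally from a first round of random CDR variants and then made and measured. Group labels follow the data file (Ctrl: baseline library sampled from a position-specific scoring matrix, with some repeated check sequences; En: ensemble of fine-tuned language models; GP: Gaussian process model; GPLM: also part of the Gaussian process libraries; HC: hill climbing; Gen: genetic algorithm; Gibbs: Gibbs sampling; a sequence that several methods proposed may carry one label only). The scFvs were displayed on barcoded MATa yeast, the peptide on MATalpha yeast. Binding brings cells together so that they mate, and sequencing counts the barcode pairs among the diploids. The ratio of observed to expected reads was calibrated, replicate by replicate, on BCL2-family standards whose Kd was known from biolayer interferometry. Mating was done six times.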

The variants keep the light chain, the linker and the frameworks of Ab-14 (scFv order VH, three GGGGS repeats, VL).
VH: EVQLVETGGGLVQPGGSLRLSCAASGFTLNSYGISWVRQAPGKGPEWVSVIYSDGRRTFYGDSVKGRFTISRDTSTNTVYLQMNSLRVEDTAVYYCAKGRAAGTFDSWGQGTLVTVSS
VL: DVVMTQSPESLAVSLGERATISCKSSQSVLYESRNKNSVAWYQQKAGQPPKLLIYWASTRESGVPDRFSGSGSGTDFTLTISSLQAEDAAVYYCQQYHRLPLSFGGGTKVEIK

Each variant is given by its three heavy chain CDRs, as the data file delimits them; those of the parent are GFTLNSYGIS, VIYSDGRRTFYGDSVK, GRAAGTFDS. Affinities are written as log10 Kd with Kd in nM; a lower number is a better binder. Averages over replicates are reported, and they cover detected replicates only. Where no diploid with the target was found in any replicate, the entry reads "nd": below detection, most likely a poor binder, though not proof of it. The authors' rule: three or more of the six replicates give a measured affinity, fewer mean a poor binder. The parent sequence was in this pool as ten entries: three were never detected, three once, and four in most replicates, with averages from 0.34 to 2.37. A sequence measured in both rounds can read differently, since the two assays cover different ranges. Three control strains display no target. For all heavy chain designs, 1% of the pairings with them gave a signal, with a median of 2.08 and one signal in twenty below 0.84, so weak values seen in few replicates may be background.

-0.59 (6 of 6 replicates): GFDLNEYGIS / VIYADGQRKAYADDVK / GNQAGTFDV [En_Gen].
-0.69 (5 of 6 replicates): GFDLNEYGIS / VIYADGLRTAYSDSVK / GNQAGTFDV [En_Gen].
nd (0 of 6 replicates): GFQIDEYGIS / VIYADGLRTAYSDAVK / GMDTGLFMD [En_Gibbs].
nd (0 of 6 replicates): GFNLDEYGIS / VIYADGARTAYANKVK / GGNWMISVN [En_Gibbs].
-0.45 (6 of 6 replicates): GFDLNEYGIS / VIYADGMRTFYADDVK / GEVAGTFDQ [En_Gen].
0.17 (6 of 6 replicates): GFSLNSYGIS / VIYSDGKRTFYKDSVK / GRTAGTFDS [GP_Gen].
1.46 (6 of 6 replicates): GFQLNSYGIS / VIYSDGRRTFYSDSVK / GSAAGTFDS [GPLM_HC].
0.22 (6 of 6 replicates): GFSLNQYGIS / VIYSDGRRTQYIDSVK / GRAAGTFDS [GPLM_HC].
-0.26 (6 of 6 replicates): GFTLNSYGIS / VIYSDGKRTFYADDVK / GREAGTFDT [GP_Gibbs].
-0.52 (6 of 6 replicates): GFSLNEYGIS / VIYSDGRRTFYGDSVK / GREAGTFDS [GPLM_Gen].
1.12 (2 of 6 replicates): GFTLDSYGIS / VIYSDGRRTFYIDSVK / GRAAGTFES [GP_HC].
nd (0 of 6 replicates): GFDLNSYGIS / VIYSDGRRTFYADSVK / GRAAGKFDS [GPLM_Gen].
1.35 (2 of 6 replicates): GFTLNSYGIS / VIYSDGRRCFYGDSVK / GDAAGTFDS [Ctrl].
nd (0 of 6 replicates): GFDINEYGIS / VIYADGRRTFYADSVK / GNQGGTFDL [En_HC].
0.91 (4 of 6 replicates): GFTLDEYGIS / VIYSDGRRTFYGDSVK / GYAAGTFDS [Ctrl].
-0.67 (6 of 6 replicates): GFNLNEYGIS / VIYADGRRTFYADSVK / GEIAGTFDL [En_HC].
nd (0 of 6 replicates): GFDLTEYGIS / VIYADGVRTHYADDVK / GKSDGTNMA [En_Gibbs].
nd (0 of 6 replicates): GFTLNSYGIS / VIYSDIRRTFYGDSVK / GRAAGTFSS [Ctrl].
-0.17 (6 of 6 replicates): GFDLNEYGIS / VIYADGMRTAYADSVK / GEVAGTFDT [En_Gen].
-0.19 (6 of 6 replicates): GFDLNEYGIS / VIYADGMRTAYTDSVK / GTNAGTFDL [En_Gen].
1.01 (5 of 6 replicates): GFNLNEYGIS / VIYADGRRTAYSDSVK / GEVAGTFDV [En_HC].
nd (0 of 6 replicates): GFTLNSYGIS / VIYSDGRRTFYGDSVK / GRQAGTADS [Ctrl].
nd (0 of 6 replicates): GFELNEFGIS / VIYADGMRASYRNDVK / GEISGDFML [En_Gibbs].
2.82 (3 of 6 replicates): GFTLDSYGIS / VIYSDGRRTFYGDSVK / GRAAGTFED [GPLM_HC].
0.57 (6 of 6 replicates): GFDLNNYGIS / VIYADGLRVEYENKFK / GDVAGTFDS [En_Gibbs].
-0.21 (4 of 6 replicates): GFDLNSYGIS / VIYSDGRRTFYGDSVK / GRTAGTFDG [GP_Gen].
nd (0 of 6 replicates): GTNLNSYGIS / VIYSDGRRTFYGDSVK / GRAAGTFKS [Ctrl].
1.11 (6 of 6 replicates): GFDLEDYGIS / VIYADGKRTQYADSVK / GEAAGTFDL [En_HC].
-0.27 (6 of 6 replicates): GFDLDEYGIS / VIYADGSRTAYSDSVK / GNVAGTFDI [En_Gen].
nd (0 of 6 replicates): GFDLQEIGIS / VIYADGTRQAYVEKVK / GQLAGFLVD [En_Gibbs].
0.33 (6 of 6 replicates): GFELNSYGIS / VIYSDGRRTFYGDSVK / GDAAGTFDS [GPLM_Gibbs].
-0.25 (6 of 6 replicates): GFDLNEYGIS / VIYADGRRTAYADDVK / GEVAGTFDL [En_Gen].
nd (0 of 6 replicates): GFDLNEQGIS / VIYADGVRTEYQNRVK / GQIDGSFTF [En_Gibbs].
1.08 (3 of 6 replicates): GFQLDKYGIS / VIYSDGRRTAMGDSVK / GRAAGTFDS [Ctrl].
1.70 (3 of 6 replicates): GFTLNSYGIS / VIYSDGRRAFYGDSVK / GRAAGTFDS [Ctrl].
0.89 (5 of 6 replicates): GFSLNSYGIS / VIYSDGRRTFYGDSVK / GRVAGTFDI [GPLM_Gen].
nd (0 of 6 replicates): GFDVMEYGIS / VIYADGLRKQYANSVK / GGLRTDFFV [En_Gibbs].
0.13 (6 of 6 replicates): GFDLNEYGIS / VIYADGRRTFYADSVK / GEVAGTFIV [En_HC].
0.54 (6 of 6 replicates): GFTLDSYGIS / VIYSDGRRTFYDDSVK / GRLAGTFDS [GP_HC].
nd (0 of 6 replicates): GFDIDEQGIS / VIYADGLRVAYKNRVK / GMGSGVIDM [En_Gibbs].
-0.14 (6 of 6 replicates): GFDLDEYGIS / VIYADGRRTFYADSVK / GENAGTFDV [En_Gen].
nd (0 of 6 replicates): GFTLNEYGIS / VIYSDGRRTFYIDSVK / GRDAGTFDS [GP_HC].
2.02 (1 of 6 replicates): GFNLDEYGIS / VIYADGMRRAYSDEVK / GYFSDILLM [En_Gibbs].

A selection of 4 entries from above:

CDR-H1,CDR-H2,CDR-H3,group,mean log10 Kd (nM),replicates with signal
GFQLDKYGIS,VIYSDGRRTAMGDSVK,GRAAGTFDS,Ctrl,1.08,3 of 6
GFDVMEYGIS,VIYADGLRKQYANSVK,GGLRTDFFV,En_Gibbs,nd,0 of 6
GFSLNEYGIS,VIYSDGRRTFYGDSVK,GREAGTFDS,GPLM_Gen,-0.52,6 of 6
GFTLDSYGIS,VIYSDGRRTFYIDSVK,GRAAGTFES,GP_HC,1.12,2 of 6

Reference: Li et al. 2023, doi:10.1038/s41467-023-39022-2. File: FLAb, binding data.